US20050153943A1, “Methods of simultaneously treating mucositis and fungal infection” (priority 2002, published 2005)

Tested on: BALB/c 3T3 (CCL-163) cells
Test: 3T3 phototoxicity assay (Neutral Red uptake, with/without UVA)
Conditions: 5 J/cm^2 UVA vs dark; <0.1 nonphototoxin, 0.1 to <0.15 probable, >=0.15 clear phototoxin

With tetracycline pyrazole [COL 5] the “MPE (mean photo effect)” value was 0.186.
